# Measurements taken from patent publication US11542290B2 (dated 2023).
# System: Caco-2 cells
smiles,measurement,setting,value
"CN1CCN(CCCN2c3ccccc3Sc3ccc(C(F)(F)F)cc32)CC1 [Trifluoperazine, 10-[3-(4-methylpiperazin-1-yl)propyl]-2-(trifluoromethyl)phenothiazine]",Permeability across membranes (in words),,moderate permeability
same,P-gp substrate status (in words),Caco-2,likely not a P-gp substrate
